Earlier results in publication PMC10812433.
“And” between values parts separate entries of the source, which are not always exact repeats. Equal entries are not always repeated.

Sequences of proteins named here, by UniProt entry; tags and fusion partners are left off. A change or cut given only in a name is not applied to a line headed by its entry.
UniProt P00581: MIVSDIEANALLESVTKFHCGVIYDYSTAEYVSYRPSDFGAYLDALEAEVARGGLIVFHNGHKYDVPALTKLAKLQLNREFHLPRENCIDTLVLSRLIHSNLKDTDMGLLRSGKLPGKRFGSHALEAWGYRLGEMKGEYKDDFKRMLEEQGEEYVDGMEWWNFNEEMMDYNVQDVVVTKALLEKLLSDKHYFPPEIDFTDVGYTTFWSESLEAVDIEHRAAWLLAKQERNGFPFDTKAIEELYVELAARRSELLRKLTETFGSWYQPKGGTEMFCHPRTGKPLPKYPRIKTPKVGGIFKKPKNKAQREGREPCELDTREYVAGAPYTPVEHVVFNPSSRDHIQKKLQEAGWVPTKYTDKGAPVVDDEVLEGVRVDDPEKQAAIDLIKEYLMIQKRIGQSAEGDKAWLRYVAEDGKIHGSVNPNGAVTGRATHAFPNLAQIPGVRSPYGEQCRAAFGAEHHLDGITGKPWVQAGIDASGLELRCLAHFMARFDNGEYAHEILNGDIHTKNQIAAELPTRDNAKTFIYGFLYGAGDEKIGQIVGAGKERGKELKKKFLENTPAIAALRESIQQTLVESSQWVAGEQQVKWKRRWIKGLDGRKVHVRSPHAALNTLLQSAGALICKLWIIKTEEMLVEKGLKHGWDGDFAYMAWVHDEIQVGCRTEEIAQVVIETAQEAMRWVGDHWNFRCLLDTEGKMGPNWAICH

Biological target: g5p (T7 DNA polymerase) (Escherichia phage T7) (UniProt P00581)

Q: With “thioredoxin 1 (EcoTrx1) (from UniProt P0AA25)” as the substance, how does the Kd read?
A: 5 nM and 2.2 nM
